The values that follow are results of earlier work, collected in patent publication US11492413B2, “Switchable antibody conjugate” (Temple University—Of The Commonwealth System of Higher …, priority 2017, dated 2022).

This data set relates to Her2-positive breast cancer cell line SK-BR-3. Particulars: SK-BR-3, comparison with most potent mixture; read-out: EC50 of previously reported conjugate; cited from earlier work.

Usually EC50 stands for the concentration needed to bring the measured effect to its halfway point. Take Herceptin-MMAF conjugate: the EC50 is 0.9 ± 0.2 nM.
